Values quoted from earlier work in US11648313B2, “Multimodal therapy for cancer cell destruction” (Southeast Missouri State University, priority 2015, dated 2023).

Tested on: SH-SY5Y cells
Settings: long-term exposure

interferonβ
activation of PI3K-AKT pathway: decreased activation of P13K-AKT pathway
